Measured values from patent publication US8075900B2, “Melanoma associated peptide analogues and vaccines against melanoma” (The United States of America, as represented by the …, priority 1996, dated 2011).

Tested on: T2 target cells, Melan-A/MART-1 27-35-reactive TIL 1235 lymphocytes
Experiment: Chromium-release assay, target cell sensitization for lysis by TIL 1235
Assay type: cell-based, human
Settings: E:T 20:1, T2 target cells preincubated 90 min with 1 μM peptide, 5 hours
Experimental: Chromium release assays were performed as described previously (Bakker et al., 1994, J. Exp. Med. 179:1005). Briefly, 10^6 target cells were incubated with 100 mCi Na2^51CrO4 (Amersham, Bucks, UK) for 1 hour. Various amounts of effector cells were then added to the target cells in triplicate wells of U bottomed microliter plates (Costar, Badhoevedorp, The Netherlands) in a final volume of 150 ml. In peptide recognition assays, target cells were pre-incubated with various concentrations of peptide for 30 or 60 min at 37° C. in a volume of 100 ml prior to the addition of effector cells. After 5 h of incubation, part of the supernatant was harvested and its radioactive content was measured. The mean percentage specific lysis of triplicate wells was calculated using the formula: % specific lysis=((experimental release−spontaneous release)÷(maximal release−spontaneous release))×100.

Sequence: AAGIGILTV [reference compound]
- target cell lysis by TIL 1235 (% specific lysis): 40%
